Experimental data taken from patent publication US7772251B2, “N-sulphonylated amino acid derivatives, method for the production and use thereof” (The Medicines Company (Leipzig) GmbH, priority 2003, dated 2010).

Molecular target: T1, matriptase (Homo sapiens, UniProt Q9Y5Y6)
T1 construct: Met-Lys-(His)6 (N, cleaved yes); made in house; host or cells: Escherichia coli BL21 (DE3), vector pET24
T1 sequence (Q9Y5Y6 615-854 limits assumed): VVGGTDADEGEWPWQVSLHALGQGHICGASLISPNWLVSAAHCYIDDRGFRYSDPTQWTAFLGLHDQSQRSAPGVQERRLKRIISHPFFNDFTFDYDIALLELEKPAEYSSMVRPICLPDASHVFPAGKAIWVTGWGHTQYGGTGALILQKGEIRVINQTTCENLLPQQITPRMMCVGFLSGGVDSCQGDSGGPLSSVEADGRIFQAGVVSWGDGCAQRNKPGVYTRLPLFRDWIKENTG
Experiment: Determination of Ki values for the inhibition of matriptase (chromogenic substrate CH3SO2-D-HHT-Gly-Arg-pNA)
Assay type: biochemical
Settings: 25° C, pH 8.0, Dixon method, average of three determinations

CC(C)c1cc(C(C)C)c(S(=O)(=O)NC(Cc2cccc(C(=N)N)c2)C(=O)N2CCN(C(=O)C3CCN(C(=N)N)CC3)CC2)c(C(C)C)c1 (stereo not shown) [Compound 64]
Ki: 14 nM
